Source: patent publication US9198913B2, “Nitroimidazooxazines and their uses in anti-tubercular therapy” (priority 2009, dated 2015)

Assay: Stability to mouse liver microsomes;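 note: analyte quantified by LC-MS/MS as ratio to internal standard peak area, mean of duplicates, 60 min value expressed relative to the 0 min level (100%)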
Format: in vitro ADME
Conditions: 1 μM, 37° C., 60 min, CD-1 mouse liver microsomes

O=[N+]([O-])c1cn2c(n1)OC[C@@H](OCc1ccc(C#Cc3ccc(OC(F)(F)F)cc3)cn1)C2 [Compound 18, (6S)-2-Nitro-6-[(5-{[4-(trifluoromethoxy)phenyl]ethynyl}-2-pyridinyl)methoxy]-6,7-dihydro-5H-imidazo[2,1-b][1,3]oxazine]
Microsomes (% remaining, 1 h) Mouse: 97%
